Legend:
[1] = biological target: T1, rat TRPV1 (Rattus norvegicus, UniProt O35433); experiment: YO-PRO-1 uptake (imaging / plate-reader) in TRPV1-expressing cells; assay type: cell-based; settings: 1 μM PDBu or 10 μM PAO
[2] = system: voltage gated Na+ channels; experiment: Neuronal Na+ currents after cap-ET and/or QX-314 loading, whole-cell recording; settings: PAO or cap-ET alone (10 μM), then 5 mM QX-314
[3] = biological target: T1, rat TRPV1; experiment: Ca^2+ imaging (Fura-2) in HEK293 cells stably expressing rat TRPV1; assay type: cell-based; settings: ratiometric fura-2 imaging

Amino acid sequences for entries named in this document (tags omitted).
UniProt O35433, whole entry, looked up: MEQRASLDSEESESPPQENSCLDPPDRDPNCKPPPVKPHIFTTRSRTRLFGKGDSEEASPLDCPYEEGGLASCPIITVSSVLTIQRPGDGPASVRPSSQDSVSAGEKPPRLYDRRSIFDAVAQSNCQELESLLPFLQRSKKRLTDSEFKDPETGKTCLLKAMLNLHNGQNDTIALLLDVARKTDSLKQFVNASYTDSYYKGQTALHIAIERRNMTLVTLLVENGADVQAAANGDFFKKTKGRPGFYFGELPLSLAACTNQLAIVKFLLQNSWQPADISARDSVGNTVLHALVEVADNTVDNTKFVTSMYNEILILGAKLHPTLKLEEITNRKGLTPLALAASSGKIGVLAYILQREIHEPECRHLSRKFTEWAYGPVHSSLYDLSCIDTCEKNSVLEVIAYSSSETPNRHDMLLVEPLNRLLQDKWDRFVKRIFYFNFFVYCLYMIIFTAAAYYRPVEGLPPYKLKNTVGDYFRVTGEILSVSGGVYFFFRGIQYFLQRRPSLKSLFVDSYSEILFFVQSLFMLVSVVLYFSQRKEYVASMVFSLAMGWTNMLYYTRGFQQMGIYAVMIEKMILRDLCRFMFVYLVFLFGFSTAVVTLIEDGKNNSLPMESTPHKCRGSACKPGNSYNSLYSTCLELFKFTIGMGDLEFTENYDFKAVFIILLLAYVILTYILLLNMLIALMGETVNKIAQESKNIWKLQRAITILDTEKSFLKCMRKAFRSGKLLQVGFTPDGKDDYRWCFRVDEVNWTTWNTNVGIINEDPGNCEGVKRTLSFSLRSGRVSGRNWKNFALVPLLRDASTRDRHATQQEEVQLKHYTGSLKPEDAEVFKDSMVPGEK

Compound | effect on potency of capsaicin or cap-ET for YO-PRO-1 uptake [1] | Na+ current density after QX-314, agent alone [2] | intracellular Ca^2+ level on extracellular application [3]
O=[As]c1ccccc1 (stereo not drawn) | increased the potency | comparable to cells not exposed to QX-314 | –
capsaicin O-butyl(trimethylammonium) acetate | – | – | effectively raised intracellular Ca^2+ levels
